Tested on: Muscarinic acetylcholine receptors M2 & M3 (Cavia porcellus)
Assay: Selectivity ratio is the antilog of the difference between the pA2 values at guinea pig left atrium and ileum muscarinic receptors

Structure (SMILES): CN(CCCCCCCCN(C)CCCCCCNCC(=O)N1c2ccccc2C(=O)Nc2cccnc21)CCCCCCNCC(=O)N1c2ccccc2C(=O)Nc2cccnc21
- Ratio: 170

Reference: ChEMBL document CHEMBL1127358 (J Med Chem, 1994)
